Results on one compound are retold here after patent US20220296535A1, “Antibacterial Dosage Regime Using Cannabinoids” (Botanix Pharmaceuticals Limited, priority 2019, published 2022).

Molecules are shown by their SMILES.

In this assay the test system is 132 strains of Staphylococcus aureus (106 MRSA and 26 MSSA strains). Nature of the assay: MIC50/MIC90 micro-broth dilution, all strains. Conditions: out of the 132 strains. A general note: In broth dilution the organism is exposed to a series of concentrations in liquid medium.

`CCC[C@@H]1C[C@@H](C(=O)N[C@@H]([C@H]2O[C@H](SC)[C@H](O)[C@@H](O)[C@H]2O)[C@H](C)Cl)N(C)C1.Cl.O` [Clindamycin, Clindamycin hydrochloride monohydrate]: the “number of resistant strains” value worked out at 37.
